Ab-14 light chain CDR variants: yeast mating affinities

The target is the same throughout: PDVDLGDISGINAS, from the HR2 region of SARS-CoV-2 spike.

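Phage display of a naive human antibody library on the peptide gave the parent. Variants in AAYL50 differ from the parent at up to three CDR positions; double and triple changes were sampled at random. Affinity was read by AlphaSeq, a pooled yeast mating assay with surface-displayed partners. Pairs that bind mate more often; barcode pairs of the diploids are counted by sequencing. Scores were corrected for input abundance and mapped to Kd with protein pairs of known affinity run in the same pool. There are three technical replicates.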

Ab-14 is the parent antibody, in scFv form: VH, then three GGGGS repeats, then VL. The heavy chain is unchanged in all variants.
VH: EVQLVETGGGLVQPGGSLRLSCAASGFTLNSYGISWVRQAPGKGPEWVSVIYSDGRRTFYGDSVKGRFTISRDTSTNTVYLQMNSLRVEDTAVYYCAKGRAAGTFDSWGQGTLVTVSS
VL: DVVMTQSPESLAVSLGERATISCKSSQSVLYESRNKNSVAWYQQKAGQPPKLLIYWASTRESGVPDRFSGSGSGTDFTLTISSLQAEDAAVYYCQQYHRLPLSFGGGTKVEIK

Substitutions are numbered in sequence along the VL above, starting at 1 (not Kabat).
This list gathers variants with a substitution at S62 (VL, numbered from residue 1).
Each Kd is an estimate from the mating assay, the geometric mean of the replicates in which the pair was seen; lower is stronger.
An entry "no signal" has no value in the source: the pair was not observed among the diploids in any replicate. This suggests poor binding but is not conclusive.
For reference, the parent read 4.4 nM as the reference entry and 48 nM as a member of this library.
Nonspecific signal, from three strains lacking the peptide, appeared in 18% of pairings of library AAYL50, centred on 15 µM (5% of these signals below 970 nM); values are not corrected for it. The control count says in how many pairings with the empty strains this scFv gave a signal.

Variant S62N Q95I gave 260 µM (1 of 3 replicates; controls 1 of 9). Variant Q27R A40Q S62V gave no signal (0 of 3 replicates; controls 0 of 9). Variant A40K A57H S62K showed 300 µM (1 of 3 replicates; controls 3 of 9). For L30F S62G L100H, the assay gave 31 nM (3 of 3 replicates; controls 1 of 9). Variant S25E S26M S62V gave 10 nM (3 of 3 replicates; controls 1 of 9). Variant V39T A40I S62A showed no signal (0 of 3 replicates; controls 0 of 9).

With Y31C E32C S62D the result was 680 nM (3 of 3 replicates; controls 3 of 9). For S26G V29Q S62G, the assay gave 300 nM (3 of 3 replicates; controls 2 of 9). With L30C S62D R99W the result was 34 nM (3 of 3 replicates; controls 3 of 9). For S38L S62K, the assay gave no signal (0 of 3 replicates; controls 0 of 9). For V29M S62I Y97W, the assay gave 51 µM (2 of 3 replicates; controls 2 of 9). With S58P S62T P101C the result was 32 µM (2 of 3 replicates; controls 2 of 9).

Variant A40S S62V L102M showed 10 µM (2 of 3 replicates; controls 3 of 9). With K24L A40W S62H the result was 140 µM (3 of 3 replicates; controls 5 of 9). Variant W56S S62H Y97K showed no signal (0 of 3 replicates; controls 0 of 9). With E32H S58M S62V the result was 200 nM (3 of 3 replicates; controls 2 of 9). With S28E N37R S62C the result was 130 nM (3 of 3 replicates; controls 2 of 9). For L30W K36G S62Q, the assay gave 3.1 nM (3 of 3 replicates; controls 4 of 9).

Variant E32M S62L Y97K showed 59 µM (2 of 3 replicates; controls 1 of 9). Variant S62Y Q96F L100H showed 160 µM (1 of 3 replicates; controls 0 of 9). For V39Q S62D L100Q, the assay gave 2.1 µM (1 of 3 replicates; controls 0 of 9). Variant E32G R60E S62Y gave no signal (0 of 3 replicates; controls 0 of 9). Variant N35C W56Q S62W gave 110 nM (3 of 3 replicates; controls 7 of 9). For A57R S62M, the assay gave no signal (0 of 3 replicates; controls 2 of 9).

For S25L S62V L100Q, the assay gave 5.2 nM (3 of 3 replicates; controls 1 of 9). For S28D W56A S62R, the assay gave 17 µM (1 of 3 replicates; controls 2 of 9). With R34E N35C S62F the result was 14 nM (3 of 3 replicates; controls 2 of 9). With S33H A40Y S62A the result was no signal (0 of 3 replicates; controls 0 of 9). Variant S26H T59W S62K gave 93 nM (3 of 3 replicates; controls 4 of 9). Variant T59I S62D gave 1.1 nM (3 of 3 replicates; controls 2 of 9).

With S62A Q95K S103Q the result was 3.2 nM (3 of 3 replicates; controls 1 of 9). With Q27L N35L S62F the result was 800 nM (3 of 3 replicates; controls 3 of 9). With S25I Y31N S62G the result was 2.7 nM (3 of 3 replicates; controls 2 of 9). Variant S38E W56S S62P showed 3.8 µM (2 of 3 replicates; controls 3 of 9). Variant S26L S62I R99Q showed 18 nM (3 of 3 replicates; controls 0 of 9). Variant S28I S38Y S62L gave 5.4 µM (2 of 3 replicates; controls 0 of 9).

Variant S26F S62Q H98N showed 19 nM (3 of 3 replicates; controls 2 of 9). With E32W S62D L102M the result was 250 nM (3 of 3 replicates; controls 4 of 9). Variant S62E R99N S103A showed 9.5 nM (3 of 3 replicates; controls 0 of 9). With N35P S62P R99D the result was no signal (0 of 3 replicates; controls 0 of 9). With Y31F S62P H98Y the result was 85 nM (3 of 3 replicates; controls 0 of 9). Variant K36L S62E L102D gave 33 µM (1 of 3 replicates; controls 3 of 9).

For A57Y S58W S62L, the assay gave no signal (0 of 3 replicates; controls 0 of 9). Variant N35Q S62V Y97G showed 12 nM (3 of 3 replicates; controls 2 of 9). Variant V39R S62V L102D showed 59 µM (2 of 3 replicates; controls 2 of 9).

The first 4 entries again:

S62N Q95I: 260 µM (1 of 3 replicates; controls 1 of 9).
Q27R A40Q S62V: no signal (0 of 3 replicates; controls 0 of 9).
A40K A57H S62K: 300 µM (1 of 3 replicates; controls 3 of 9).
L30F S62G L100H: 31 nM (3 of 3 replicates; controls 1 of 9).

Reference: Engelhart et al. 2022, doi:10.1038/s41597-022-01779-4. File: FLAb, binding data.